PubChem BioAssay (NCI)
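Results reflect a 48-hour exposure of cells in 96-well plates to compound at five concentrations. The concentration for 50% growth inhibition is given as GI50. TGI denotes the concentration required for complete inhibition of growth.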

Columns and labels:
Experiment in all cases: NCI-60 cell line screen, 48 h
A498 renal = system: A498 renal
DLD-1 colon = system: DLD-1 colon
A549 NSCLC = system: A549 NSCLC
NCI-H23 lung = system: NCI-H23 lung
M19-MEL melanoma = system: M19-MEL melanoma
ACHN renal = system: ACHN renal
DMS 114 small cell lung = system: DMS 114 small cell lung
UO-31 renal = system: UO-31 renal
SNB-75 CNS = system: SNB-75 CNS
RPMI-8226 leukemia = system: RPMI-8226 leukemia
SNB-78 CNS = system: SNB-78 CNS
NCI-H522 lung = system: NCI-H522 lung
HCC-2998 colon = system: HCC-2998 colon
HOP-92 NSCLC = system: HOP-92 NSCLC
SF-268 CNS = system: SF-268 CNS
HT29 colon = system: HT29 colon
KM12 colon = system: KM12 colon
NCI-H460 lung = system: NCI-H460 lung
RXF 393 renal = system: RXF 393 renal
UACC-257 melanoma = system: UACC-257 melanoma
SF-539 CNS = system: SF-539 CNS
NCI-H322M lung = system: NCI-H322M lung
OVCAR-8 ovarian = system: OVCAR-8 ovarian
NCI-H226 lung = system: NCI-H226 lung
RXF-631 renal = system: RXF-631 renal
MOLT-4 leukemia = system: MOLT-4 leukemia
SR leukemia = system: SR leukemia
CCRF-CEM leukemia = system: CCRF-CEM leukemia
HCT-116 colon = system: HCT-116 colon
SK-MEL-28 melanoma = system: SK-MEL-28 melanoma
HCT-15 colon = system: HCT-15 colon
UACC-62 melanoma = system: UACC-62 melanoma
786-0 renal = system: 786-0 renal
EKVX NSCLC = system: EKVX NSCLC
COLO 205 colon = system: COLO 205 colon
CAKI-1 renal = system: CAKI-1 renal
SNB-19 CNS = system: SNB-19 CNS
OVCAR-5 ovarian = system: OVCAR-5 ovarian
LXFL 529 NSCLC = system: LXFL 529 NSCLC
K-562 leukemia = system: K-562 leukemia
HOP-62 NSCLC = system: HOP-62 NSCLC
KM20L2 colon = system: KM20L2 colon
DMS 273 small cell lung = system: DMS 273 small cell lung
IGROV1 ovarian = system: IGROV1 ovarian
OVCAR-3 ovarian = system: OVCAR-3 ovarian
HOP-18 NSCLC = system: HOP-18 NSCLC
M14 melanoma = system: M14 melanoma
XF 498 CNS = system: XF 498 CNS
TK-10 renal = system: TK-10 renal
HL-60(TB) leukemia = system: HL-60(TB) leukemia
LOX IMVI melanoma = system: LOX IMVI melanoma
SN12C renal = system: SN12C renal
SW-620 colon = system: SW-620 colon
OVCAR-4 ovarian = system: OVCAR-4 ovarian
MALME-3M melanoma = system: MALME-3M melanoma
SK-MEL-2 melanoma = system: SK-MEL-2 melanoma
SK-MEL-5 melanoma = system: SK-MEL-5 melanoma
SK-OV-3 ovarian = system: SK-OV-3 ovarian
U251 CNS = system: U251 CNS
SF-295 CNS = system: SF-295 CNS

c1ccc(CNCCNCc2ccccc2)cc1
GI50 (A498 renal): 24.4 µM
TGI (A498 renal): 68.5 µM
GI50 (DLD-1 colon): 20.9 µM
TGI (DLD-1 colon): 88 µM
GI50 (A549 NSCLC): 26.3 µM
TGI (A549 NSCLC): > 100 µM
GI50 (NCI-H23 lung): 20.1 µM
TGI (NCI-H23 lung): 72.3 µM
GI50 (M19-MEL melanoma): 11.9 µM
TGI (M19-MEL melanoma): 47.9 µM
GI50 (ACHN renal): 16.5 µM
TGI (ACHN renal): > 100 µM
GI50 (DMS 114 small cell lung): 31.8 µM
TGI (DMS 114 small cell lung): > 100 µM
GI50 (UO-31 renal): 30.4 µM
TGI (UO-31 renal): > 100 µM
GI50 (SNB-75 CNS): 25.4 µM
TGI (SNB-75 CNS): > 100 µM
GI50 (RPMI-8226 leukemia): 26.2 µM
TGI (RPMI-8226 leukemia): 68.5 µM
GI50 (SNB-78 CNS): 23.3 µM
TGI (SNB-78 CNS): > 100 µM
GI50 (NCI-H522 lung): 20.1 µM
TGI (NCI-H522 lung): 76.3 µM
GI50 (HCC-2998 colon): 30.8 µM
TGI (HCC-2998 colon): > 100 µM
GI50 (HOP-92 NSCLC): 43.4 µM
TGI (HOP-92 NSCLC): > 100 µM
GI50 (SF-268 CNS): 24.1 µM
TGI (SF-268 CNS): 86.7 µM
GI50 (HT29 colon): 32.1 µM
TGI (HT29 colon): > 100 µM
GI50 (KM12 colon): 15.5 µM
TGI (KM12 colon): > 100 µM
GI50 (NCI-H460 lung): 15.4 µM
TGI (NCI-H460 lung): > 100 µM
GI50 (RXF 393 renal): 26.7 µM
TGI (RXF 393 renal): 81 µM
GI50 (UACC-257 melanoma): 34.2 µM
TGI (UACC-257 melanoma): > 100 µM
GI50 (SF-539 CNS): 23.1 µM
TGI (SF-539 CNS): 74.9 µM
GI50 (NCI-H322M lung): 25.9 µM
TGI (NCI-H322M lung): > 100 µM
GI50 (OVCAR-8 ovarian): 24.9 µM
TGI (OVCAR-8 ovarian): > 100 µM
GI50 (NCI-H226 lung): 31.7 µM
TGI (NCI-H226 lung): > 100 µM
GI50 (RXF-631 renal): 15.1 µM
TGI (RXF-631 renal): > 100 µM
GI50 (MOLT-4 leukemia): 11.4 µM
TGI (MOLT-4 leukemia): 46 µM
GI50 (SR leukemia): 14.9 µM
TGI (SR leukemia): 48.3 µM
GI50 (CCRF-CEM leukemia): 5.19 µM
TGI (CCRF-CEM leukemia): 79.6 µM
GI50 (HCT-116 colon): 18.7 µM
TGI (HCT-116 colon): > 100 µM
GI50 (SK-MEL-28 melanoma): 3.02 µM
TGI (SK-MEL-28 melanoma): 57.2 µM
GI50 (HCT-15 colon): 20.2 µM
TGI (HCT-15 colon): > 100 µM
GI50 (UACC-62 melanoma): 12.5 µM
TGI (UACC-62 melanoma): 84.6 µM
GI50 (786-0 renal): 22.4 µM
TGI (786-0 renal): > 100 µM
GI50 (EKVX NSCLC): 27.7 µM
TGI (EKVX NSCLC): > 100 µM
GI50 (COLO 205 colon): 17.9 µM
TGI (COLO 205 colon): 44.2 µM
GI50 (CAKI-1 renal): 0.456 µM
TGI (CAKI-1 renal): 44.4 µM
GI50 (SNB-19 CNS): 0.297 µM
TGI (SNB-19 CNS): 85.1 µM
GI50 (OVCAR-5 ovarian): 40.8 µM
TGI (OVCAR-5 ovarian): > 100 µM
GI50 (LXFL 529 NSCLC): 20.7 µM
TGI (LXFL 529 NSCLC): > 100 µM
GI50 (K-562 leukemia): 24 µM
TGI (K-562 leukemia): > 100 µM
GI50 (HOP-62 NSCLC): 18.3 µM
TGI (HOP-62 NSCLC): 64.2 µM
GI50 (KM20L2 colon): 23.2 µM
TGI (KM20L2 colon): > 100 µM
GI50 (DMS 273 small cell lung): 24.5 µM
TGI (DMS 273 small cell lung): > 100 µM
GI50 (IGROV1 ovarian): 25.6 µM
TGI (IGROV1 ovarian): 93.2 µM
GI50 (OVCAR-3 ovarian): 27.6 µM
TGI (OVCAR-3 ovarian): > 100 µM
GI50 (HOP-18 NSCLC): 12.9 µM
TGI (HOP-18 NSCLC): 97.9 µM
GI50 (M14 melanoma): 17.1 µM
TGI (M14 melanoma): 65.9 µM
GI50 (XF 498 CNS): 80.9 µM
TGI (XF 498 CNS): > 100 µM
GI50 (TK-10 renal): 40.6 µM
TGI (TK-10 renal): > 100 µM
GI50 (HL-60(TB) leukemia): 53.9 µM
TGI (HL-60(TB) leukemia): > 100 µM
GI50 (LOX IMVI melanoma): 26.1 µM
TGI (LOX IMVI melanoma): > 100 µM
GI50 (SN12C renal): 25 µM
TGI (SN12C renal): > 100 µM
GI50 (SW-620 colon): 24.1 µM
TGI (SW-620 colon): > 100 µM
GI50 (OVCAR-4 ovarian): 27.1 µM
TGI (OVCAR-4 ovarian): > 100 µM
GI50 (MALME-3M melanoma): 25.1 µM
TGI (MALME-3M melanoma): 76.6 µM
GI50 (SK-MEL-2 melanoma): 15.3 µM
TGI (SK-MEL-2 melanoma): 52.6 µM
GI50 (SK-MEL-5 melanoma): 15.6 µM
TGI (SK-MEL-5 melanoma): 51.9 µM
GI50 (SK-OV-3 ovarian): 23.2 µM
TGI (SK-OV-3 ovarian): > 100 µM
GI50 (U251 CNS): 18.8 µM
TGI (U251 CNS): > 100 µM
GI50 (SF-295 CNS): 26.9 µM
TGI (SF-295 CNS): > 100 µM

CCN(CC)C(=O)Oc1ccc(COC(C)=O)nc1
TGI (A498 renal): > 100 µM
TGI (DLD-1 colon): > 100 µM
TGI (A549 NSCLC): > 100 µM
TGI (NCI-H23 lung): > 100 µM
TGI (M19-MEL melanoma): > 100 µM
TGI (ACHN renal): > 100 µM
TGI (DMS 114 small cell lung): > 100 µM
TGI (UO-31 renal): > 100 µM
TGI (SNB-75 CNS): > 100 µM
TGI (SNB-78 CNS): > 100 µM
TGI (NCI-H522 lung): > 100 µM
TGI (HOP-92 NSCLC): > 100 µM
TGI (SF-268 CNS): > 100 µM
TGI (HT29 colon): > 100 µM
TGI (KM12 colon): > 100 µM
TGI (NCI-H460 lung): > 100 µM
TGI (RXF 393 renal): > 100 µM
TGI (UACC-257 melanoma): > 100 µM
TGI (SF-539 CNS): > 100 µM
TGI (NCI-H322M lung): > 100 µM
TGI (NCI-H226 lung): > 100 µM
TGI (RXF-631 renal): > 100 µM
TGI (MOLT-4 leukemia): > 100 µM
TGI (SR leukemia): > 100 µM
TGI (CCRF-CEM leukemia): > 100 µM
TGI (HCT-116 colon): > 100 µM
TGI (SK-MEL-28 melanoma): > 100 µM
TGI (HCT-15 colon): > 100 µM
TGI (UACC-62 melanoma): > 100 µM
TGI (786-0 renal): > 100 µM
TGI (EKVX NSCLC): > 100 µM
TGI (COLO 205 colon): > 100 µM
TGI (CAKI-1 renal): > 100 µM
TGI (SNB-19 CNS): > 100 µM
TGI (OVCAR-5 ovarian): > 100 µM
TGI (LXFL 529 NSCLC): > 100 µM
TGI (K-562 leukemia): > 100 µM
TGI (HOP-62 NSCLC): > 100 µM
TGI (KM20L2 colon): > 100 µM
TGI (DMS 273 small cell lung): > 100 µM
TGI (IGROV1 ovarian): > 100 µM
TGI (OVCAR-3 ovarian): > 100 µM
TGI (HOP-18 NSCLC): > 100 µM
TGI (M14 melanoma): > 100 µM
TGI (XF 498 CNS): > 100 µM
TGI (TK-10 renal): > 100 µM
TGI (HL-60(TB) leukemia): > 100 µM
TGI (LOX IMVI melanoma): > 100 µM
TGI (SN12C renal): > 100 µM
TGI (SW-620 colon): > 100 µM
TGI (OVCAR-4 ovarian): > 100 µM
TGI (MALME-3M melanoma): > 100 µM
TGI (SK-MEL-2 melanoma): > 100 µM
TGI (SK-MEL-5 melanoma): > 100 µM
TGI (SK-OV-3 ovarian): > 100 µM
TGI (U251 CNS): > 100 µM
TGI (SF-295 CNS): > 100 µM
